The text below walks through data of PubChem BioAssay (EPA / NIEHS).

Sequences of proteins named here, by UniProt entry; tags and fusion partners are left off. A change or cut given only in a name is not applied to a line headed by its entry.
UniProt P40763, whole entry, looked up: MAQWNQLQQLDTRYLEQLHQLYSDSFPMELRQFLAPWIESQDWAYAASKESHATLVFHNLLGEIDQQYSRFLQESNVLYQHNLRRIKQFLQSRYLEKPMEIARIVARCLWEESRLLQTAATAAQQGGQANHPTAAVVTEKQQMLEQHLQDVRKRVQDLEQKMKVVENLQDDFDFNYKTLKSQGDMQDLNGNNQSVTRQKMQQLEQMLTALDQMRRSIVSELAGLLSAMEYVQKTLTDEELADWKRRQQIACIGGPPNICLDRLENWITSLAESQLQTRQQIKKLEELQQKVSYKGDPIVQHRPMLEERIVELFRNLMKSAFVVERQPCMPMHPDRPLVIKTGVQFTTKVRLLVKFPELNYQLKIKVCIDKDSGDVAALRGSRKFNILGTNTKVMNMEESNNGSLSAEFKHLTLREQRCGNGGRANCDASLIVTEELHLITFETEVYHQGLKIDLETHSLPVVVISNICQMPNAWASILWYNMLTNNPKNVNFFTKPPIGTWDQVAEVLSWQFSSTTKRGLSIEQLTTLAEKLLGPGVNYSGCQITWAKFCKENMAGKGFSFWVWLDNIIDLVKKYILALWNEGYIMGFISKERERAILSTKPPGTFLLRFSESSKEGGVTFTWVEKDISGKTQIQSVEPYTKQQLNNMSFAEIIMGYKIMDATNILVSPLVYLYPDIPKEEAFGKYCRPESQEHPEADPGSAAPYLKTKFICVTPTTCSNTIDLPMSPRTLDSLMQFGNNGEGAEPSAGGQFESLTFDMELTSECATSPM
UniProt P19838: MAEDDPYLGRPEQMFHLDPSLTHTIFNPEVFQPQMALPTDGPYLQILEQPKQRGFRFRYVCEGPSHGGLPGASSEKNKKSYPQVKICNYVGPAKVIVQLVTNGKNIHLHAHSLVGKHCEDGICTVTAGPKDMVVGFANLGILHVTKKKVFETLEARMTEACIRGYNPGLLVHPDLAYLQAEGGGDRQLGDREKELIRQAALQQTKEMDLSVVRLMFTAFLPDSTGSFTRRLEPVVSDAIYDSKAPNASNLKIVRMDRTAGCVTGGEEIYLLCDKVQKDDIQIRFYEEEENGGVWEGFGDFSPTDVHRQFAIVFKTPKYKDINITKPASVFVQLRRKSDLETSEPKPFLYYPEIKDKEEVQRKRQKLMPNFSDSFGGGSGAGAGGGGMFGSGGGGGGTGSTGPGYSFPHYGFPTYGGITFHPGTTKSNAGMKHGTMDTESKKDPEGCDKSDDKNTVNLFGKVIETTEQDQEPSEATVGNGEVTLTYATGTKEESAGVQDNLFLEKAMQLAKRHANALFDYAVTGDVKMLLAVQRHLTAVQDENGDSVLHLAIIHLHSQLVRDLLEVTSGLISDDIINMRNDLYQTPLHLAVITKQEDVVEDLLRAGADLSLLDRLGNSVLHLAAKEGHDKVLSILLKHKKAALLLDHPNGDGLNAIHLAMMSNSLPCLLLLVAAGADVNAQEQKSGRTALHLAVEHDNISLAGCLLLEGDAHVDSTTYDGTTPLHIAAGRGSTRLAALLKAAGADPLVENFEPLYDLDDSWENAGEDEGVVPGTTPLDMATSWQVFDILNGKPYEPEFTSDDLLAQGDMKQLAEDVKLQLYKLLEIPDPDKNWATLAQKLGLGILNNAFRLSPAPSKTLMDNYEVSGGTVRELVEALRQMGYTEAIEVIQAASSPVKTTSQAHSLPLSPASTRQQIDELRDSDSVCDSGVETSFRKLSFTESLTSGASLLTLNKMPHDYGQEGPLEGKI
UniProt Q16236, whole entry, looked up: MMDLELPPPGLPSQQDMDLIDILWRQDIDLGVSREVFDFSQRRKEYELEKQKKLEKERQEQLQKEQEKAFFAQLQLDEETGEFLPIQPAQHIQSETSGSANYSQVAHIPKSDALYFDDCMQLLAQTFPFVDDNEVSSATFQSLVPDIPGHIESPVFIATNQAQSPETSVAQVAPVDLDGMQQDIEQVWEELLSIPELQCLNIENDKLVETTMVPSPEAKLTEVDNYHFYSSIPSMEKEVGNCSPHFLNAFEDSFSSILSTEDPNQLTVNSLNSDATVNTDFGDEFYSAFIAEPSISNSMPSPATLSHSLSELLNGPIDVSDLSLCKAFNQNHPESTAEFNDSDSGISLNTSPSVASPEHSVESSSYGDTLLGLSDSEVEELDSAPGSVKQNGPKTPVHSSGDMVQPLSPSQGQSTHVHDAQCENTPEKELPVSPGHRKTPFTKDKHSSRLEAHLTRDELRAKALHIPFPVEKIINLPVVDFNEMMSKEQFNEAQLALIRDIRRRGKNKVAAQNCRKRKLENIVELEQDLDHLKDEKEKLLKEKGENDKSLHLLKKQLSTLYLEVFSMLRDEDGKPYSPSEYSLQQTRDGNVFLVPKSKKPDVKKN

The term AC50 denotes the midpoint of the concentration-response curve, whichever way the signal moves.

Common to all, as to conditions: actives raise or lower the signal; mRNA level, 48 h
Read-out in assay [1]: Keratin 19 (KRT19), KRT19 (gene 3880)
The assay can be described thus: LTEA_HepaRG_KRT19: Life Technologies and Expression Analysis (LTEA) Assay for Keratin 19 (KRT19) using HepaRG (AID 2283512).

Read-out in assay [2]: JUN Transcription Factor, JUN (gene 3725)
The assay can be described thus: LTEA_HepaRG_JUN: Life Technologies and Expression Analysis (LTEA) Assay for JUN Transcription Factor using HepaRG (AID 2283513). An outline of the steps: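 HepaRG cells, 48 h post-plating, exposed 48 h in serum-free induction medium to 8-point half-log series (top 100 uM, 0.5% DMSO), duplicate; mRNA by qRT-PCR (TaqMan, Fluidigm), normalized to ACTB/GAPDH/POLR2A; bidirectional fit vs DMSO.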

Read-out in assay [3]: Lipase C (LIPC), LIPC (gene 3990)
The assay can be described thus: LTEA_HepaRG_LIPC: Life Technologies and Expression Analysis (LTEA) Assay for Lipase C (LIPC) using HepaRG (AID 2283514). Put shortly: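 HepaRG cells, 48 h after plating, treated in duplicate for 48 h in serum-free induction medium over 8 half-log concentrations from 100 uM, 0.5% DMSO. LIPC mRNA by TaqMan qRT-PCR normalized to ACTB/GAPDH/POLR2A; bidirectional fit versus DMSO.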

Read-out in assay [4]: Lipoprotein lipase (LPL), LPL (gene 4023)
Nature of the assay: LTEA_HepaRG_LPL: Life Technologies and Expression Analysis (LTEA) Assay for Lipoprotein lipase (LPL) using HepaRG (AID 2283515). An outline of the steps:
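Differentiated HepaRG cells, plated 48 h, then exposed 48 h in serum-free induction medium to 8 concentrations (top 100 uM, half-log steps) in 0.5% DMSO, duplicate. LPL mRNA measured by qRT-PCR, normalized to ACTB, GAPDH and POLR2A.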

Read-out in assay [5]: MicroRNA 122 (MIR122), gene 406906
The assay can be described thus: LTEA_HepaRG_MIR122: Life Technologies and Expression Analysis (LTEA) Assay for MicroRNA 122 (MIR122) using HepaRG (AID 2283516). Also: the transcript read is the microRNA miR-122. Put shortly:
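Differentiated human HepaRG cells in serum-free induction medium exposed 48 h to 8 half-log concentrations from 100 uM in 0.5% DMSO, duplicate. MIR122 quantified by Fluidigm TaqMan qRT-PCR, normalised to ACTB, GAPDH, POLR2A; fold change fitted bidirectionally versus DMSO.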

Read-out in another assay: MYC, MYC (gene 4609)
Nature of the assay: LTEA_HepaRG_MYC: Life Technologies and Expression Analysis (LTEA) Assay for MYC using HepaRG (AID 2283518). An outline of the steps: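 Cells are thawed, plated and cultured 48 h, then treated for 48 h with test chemicals (eight half-log concentrations from 100 uM, 0.5% DMSO vehicle). RNA is isolated and MYC expression quantified by qRT-PCR against three housekeeping genes.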

Read-out in assay [6]: matrix metalloproteinase-3 (MMP3), MMP3 (gene 4314)
The assay can be described thus: LTEA_HepaRG_MMP3: Life Technologies and Expression Analysis (LTEA) Assay for matrix metalloproteinase-3 (MMP3) using HepaRG (AID 2283519). An outline of the steps: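 HepaRG cells (~100,000/well) in serum-free induction medium were dosed in duplicate for 48 h with an 8-point half-log series from 100 uM, 0.5% DMSO. MMP3 mRNA was quantified by Fluidigm TaqMan qRT-PCR, normalized to three housekeeping genes.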

Read-out in assay [7]: Paternally Expressed 10 (PEG10), PEG10 (gene 23089)
The assay can be described thus: LTEA_HepaRG_PEG10: Life Technologies and Expression Analysis (LTEA) Assay for Paternally Expressed 10 (PEG10) using HepaRG (AID 2283520). Put shortly:
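Differentiated HepaRG cells exposed 48 h in serum-free induction medium to eight half-log concentrations topping at 100 uM, 0.5% DMSO, in duplicate. PEG10 mRNA quantified by TaqMan qRT-PCR, normalized to ACTB, GAPDH and POLR2A; bidirectional fit versus DMSO.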

Read-out in assay [8]: solute carrier (SLC22A1), SLC22A1 (gene 6580)
Nature of the assay: LTEA_HepaRG_SLC22A1: Life Technologies and Expression Analysis (LTEA) Assay for solute carrier (SLC22A1) using HepaRG (AID 2283524). An outline of the steps: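 Differentiated human HepaRG cells in serum-free induction medium, exposed 48 h in duplicate to 8-point half-log series from 100 µM top in 0.5% DMSO. SLC22A1 mRNA by TaqMan qRT-PCR normalized to ACTB, GAPDH, POLR2A; bidirectional fit versus DMSO.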

Read-out in assay [9]: Pyruvate Dehydrogenase Kinase 4 (PDK4), PDK4 (gene 5166)
Nature of the assay: LTEA_HepaRG_PDK4: Life Technologies and Expression Analysis (LTEA) Assay for Pyruvate Dehydrogenase Kinase 4 (PDK4) using HepaRG (AID 2283525). Put shortly: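 HepaRG cells plated 48 h, then switched to serum-free induction medium and exposed in duplicate for 48 h to 8 half-log concentrations from 100 uM in 0.5% DMSO. PDK4 mRNA measured by qRT-PCR, normalized to ACTB, GAPDH and POLR2A; bidirectional fit versus DMSO.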

Read-out in assay [10]: succinate dehydrogenase complex iron sulfur subunit B (SDHB), SDHB (gene 6390)
The assay can be described thus: LTEA_HepaRG_SDHB: Life Technologies and Expression Analysis (LTEA) Assay for succinate dehydrogenase complex iron sulfur subunit B (SDHB) using HepaRG (AID 2283528). An outline of the steps: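 Readout is SDHB transcript level by qRT-PCR, normalised to three housekeeping genes and fitted bidirectionally against 0.5% DMSO vehicle. Human HepaRG cells were treated for 48 h at up to 100 uM.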

Read-out in assay [11]: Signal transducer and activator of transcription 3 (Homo sapiens) (UniProt P40763)
The assay can be described thus: LTEA_HepaRG_STAT3: Life Technologies and Expression Analysis (LTEA) Assay for Signal transducer and activator of transcription (STAT3) using HepaRG (AID 2283529). An outline of the steps:
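Differentiated HepaRG cells, serum-free induction medium, dosed 48 h in duplicate, 8 half-log concentrations from 100 uM in 0.5% DMSO. STAT3 mRNA by qRT-PCR, normalised to ACTB, GAPDH, POLR2A; bidirectional fit versus DMSO.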

Read-out in assay [12]: solute carrier (SLCO1B1), SLCO1B1 (gene 10599)
The assay can be described thus: LTEA_HepaRG_SLCO1B1: Life Technologies and Expression Analysis (LTEA) Assay for solute carrier (SLCO1B1) using HepaRG (AID 2283530). Put shortly: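 Gain or loss of SLCO1B1 mRNA is fitted against the 0.5% DMSO vehicle in human HepaRG liver cells treated 48 h at up to 100 uM in half-log steps. Expression comes from qRT-PCR normalized to endogenous controls.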

Read-out in assay [13]: sulfotransferase 2A1 (SULT2A1), SULT2A1 (gene 6822)
Nature of the assay: LTEA_HepaRG_SULT2A1: Life Technologies and Expression Analysis (LTEA) Assay for sulfotransferase 2A1 (SULT2A1) using HepaRG (AID 2283531). Put shortly: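 Cells were plated and cultured 48 h, switched to serum-free induction medium, then dosed in duplicate for 48 h (8 concentrations, max 100 uM). RNA was isolated and SULT2A1 expression measured by qRT-PCR; gain or loss of signal fitted relative to DMSO.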

Read-out in assay [14]: matrix metalloproteinase-10 (MMP10), MMP10 (gene 4319)
Nature of the assay: LTEA_HepaRG_MMP10: Life Technologies and Expression Analysis (LTEA) Assay for matrix metalloproteinase-10 (MMP10) using HepaRG (AID 2283517). An outline of the steps:
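Differentiated HepaRG cells in serum-free induction medium exposed 48 h in duplicate to 8-point half-log series up to 100 uM in 0.5% DMSO. mRNA quantified by qRT-PCR, normalised to ACTB, GAPDH, POLR2A; bidirectional fit versus DMSO.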

Read-out in assay [15]: Nuclear factor NF-kappa-B p105 subunit (Homo sapiens) (UniProt P19838)
The assay can be described thus: LTEA_HepaRG_NFKB1: Life Technologies and Expression Analysis (LTEA) Assay for Nuclear Factor Kappa B Subunit 1 (NFKB1) using HepaRG (AID 2283521).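 Also: TaqMan qRT-PCR transcript normalised to ACTB GAPDH and POLR2A housekeeping genes.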 Put shortly:
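HepaRG, 48 h exposure; 8-pt half-log series from 100 uM in 0.5% DMSO; duplicates. Readout: NFKB1 mRNA by qRT-PCR (Fluidigm arrays), housekeeping-normalized. Gain/loss fit vs DMSO baseline.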

Read-out in assay [16]: Protein phosphatase 2A (PPP2R4), PTPA (gene 5524)
Nature of the assay: LTEA_HepaRG_PPP2R4: Life Technologies and Expression Analysis (LTEA) Assay for Protein phosphatase 2A (PPP2R4) using HepaRG (AID 2283522). Put shortly:
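Differentiated human HepaRG cells in serum-free induction medium were exposed 48 h to 8 concentrations (top 100 µM, half-log steps, duplicate) in 0.5% DMSO. PPP2R4 mRNA was measured by TaqMan qRT-PCR, normalised to ACTB, GAPDH and POLR2A, and fitted bidirectionally versus DMSO.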

Read-out in assay [17]: Phosphatase and tensin (PTEN), PTEN (gene 5728)
The assay can be described thus: LTEA_HepaRG_PTEN: Life Technologies and Expression Analysis (LTEA) Assay for Phosphatase and tensin (PTEN) using HepaRG (AID 2283523). An outline of the steps:
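HepaRG cells, 48 h after plating, exposed in duplicate for 48 h in serum-free induction medium to 8 half-log concentrations up to 100 uM (0.5% DMSO). PTEN mRNA by qRT-PCR, normalized to ACTB, GAPDH, POLR2A; bidirectional fit versus DMSO.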

Read-out in assay [18]: NAD(P)H dehydrogenase [quinone] 1 (NQO1), NQO1 (gene 1728)
The assay can be described thus: LTEA_HepaRG_NQO1: Life Technologies and Expression Analysis (LTEA) Assay for NAD(P)H dehydrogenase [quinone] 1 (NQO1) using HepaRG (AID 2283526). Put shortly:
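Differentiated human HepaRG cells in serum-free induction medium, dosed in duplicate for 48 h at 8 half-log concentrations up to 100 uM in 0.5% DMSO. NQO1 mRNA by qRT-PCR normalized to ACTB, GAPDH, POLR2A; bidirectional fit versus DMSO baseline.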

Read-out in assay [19]: Nuclear factor erythroid 2-related factor 2 (Homo sapiens) (UniProt Q16236)
The assay can be described thus: LTEA_HepaRG_NFE2L2: Life Technologies and Expression Analysis (LTEA) Assay for Nuclear factor erythroid 2-related factor 2 (NFE2L2) Transcription Factor using HepaRG (AID 2283527).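 As to outcome: TaqMan qRT-PCR transcript level normalised to ACTB GAPDH and POLR2A housekeeping genes.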 An outline of the steps: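 Differentiated human HepaRG cells, serum-free induction medium, exposed 48 h in duplicate to eight half-log concentrations up to 100 uM in 0.5% DMSO. NFE2L2 mRNA by Fluidigm TaqMan qRT-PCR, normalised to ACTB, GAPDH, POLR2A; bidirectional change versus DMSO.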

Only a part is listed here, and it is no random draw. Calls of active or inactive are those of the source. The calls were made as follows: active = hit-call score of the fitted dose curve at least 0.9, where 1 is the maximum; inactive = score below 0.9.

With `Cc1cc([N+](=O)[O-])cc([N+](=O)[O-])c1O`, the AC50 in [1] was active: 23.3 µM; in assay [2], active: 6.97 µM; in [3], active: 9.43 µM; in [4], active: 82.4 µM; in assay [5], active: 14.9 µM; with MYC, MYC (gene 4609), active: 38.5 µM. Also, the AC50 was active: 6.29 µM in assay [7]; active: 7.55 µM in assay [8]; active: 2.53 µM in assay [10]; active: 2.58 µM in assay [11]; active: 8.85 µM in assay [12]; active: 8.3 µM in assay [13]. The outcome in assay [6] and in [9] was inactive.

Regarding `O=C1C2CC=CCC2C(=O)N1SC(Cl)(Cl)C(Cl)Cl` (configuration not stated), the outcome in [2] is “inactive”; in assay [3], “inactive”; in [5], “inactive”; in [14], “inactive”; with MYC, MYC (gene 4609) it was “inactive”; in [6], “inactive”. For the same compound, the compound was called inactive in assay [7], in assay [15], in [16], in assay [17], in assay [9] and in assay [18]. Besides, the call in assay [19], in [10], in assay [11], in assay [12] and in assay [13] was inactive. Also, the AC50 in assay [4] and in assay [8] was active: 50 µM throughout.

For the compound `CN(C(=O)Cc1cccc2occc12)[C@H]1CC[C@@]2(CCCO2)C[C@@H]1N1CCCC1`, the outcome in [1], in assay [2], in [3], in [4], in [5] and in assay [14] was inactive. The outcome was “inactive” in the assay with MYC, MYC (gene 4609); “inactive” in assay [6]; “inactive” in [7]; “inactive” in [15]; “inactive” in assay [16]; “inactive” in [17]. Moreover, the compound was called inactive in assay [8], in assay [9], in assay [18], in assay [19], in assay [10] and in [11]. For the same compound, the compound was called inactive in assay [12] and in assay [13].

With `CC(C)OP(=S)(OC(C)C)SCCNS(=O)(=O)c1ccccc1`, the compound was called inactive in assay [1], in assay [3] and in assay [18]. Also, the AC50 in assay [2] is active: 87.6 µM; in assay [4], active: 86.1 µM; in assay [5], active: 50 µM; in assay [14], active: 77.5 µM; with MYC, MYC (gene 4609), active: 81.7 µM; in assay [6] it was active: 78.9 µM. Besides, the AC50 in assay [7] is active: 66.5 µM; in assay [16], active: 81.2 µM; in assay [17], active: 90.4 µM; in assay [8], active: 4.18 µM; in assay [9], active: 89.4 µM; in assay [19], active: 62.1 µM. The AC50 is active: 85.7 µM in [10], active: 15.9 µM in assay [11], active: 92.9 µM in assay [12] and active: 79.2 µM in assay [13].
